Experimental findings from PubChem BioAssay AID492972 (The Scripps Research Institute Molecular Screening Center, 2010) are described below.

Protein sequences, listed by entry. Tags and fused reporters are not part of them. Lines headed by an entry give the natural chain unless they say otherwise; changes in a name come on top.
UniProt Q15102: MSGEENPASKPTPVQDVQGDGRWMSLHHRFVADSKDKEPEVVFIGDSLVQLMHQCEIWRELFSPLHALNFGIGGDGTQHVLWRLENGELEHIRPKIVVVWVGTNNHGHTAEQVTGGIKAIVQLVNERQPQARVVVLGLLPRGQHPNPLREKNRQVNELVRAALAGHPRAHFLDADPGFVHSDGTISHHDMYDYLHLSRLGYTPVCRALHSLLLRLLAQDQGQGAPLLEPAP

Only a part is listed here, and it is no random draw. Calls of active or inactive are those of the source.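 The calls were made as follows: active = inhibition above the screen-wide average of all tested compounds plus 3 SD (cut at about 25% in these data); inactive = the rest.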

This assay concerns the target Platelet-activating factor acetylhydrolase IB subunit alpha1 (Homo sapiens) (UniProt Q15102). In words: inhibition of PAF acetylhydrolase 1B subunit 3 – biochemical, fluorescence polarization, human, primary screen (AID 492972).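 Also: 0% = enzyme with DMSO only and 100% = wells lacking PAFAH1B3 protein.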 The conditions noted are these: recombinant PAFAH1B3, FP-rhodamine probe, at 3.39 µM, hits give high values. For orientation: Polarisation of emitted light reports the rotation of a fluorescent probe.
For `NC(=O)c1cc([N+](=O)[O-])cc([N+](=O)[O-])c1N`, the inhibition (usually the relative decrease from the control value, in per cent) is inactive: 1.06%.

With `Clc1ccc(Cl)c(NC2=NCC(CBr)S2)c1` (stereo unspecified), the inhibition was inactive: 9.33%.

For `CN1CCCC(OC(=O)C(c2ccccc2)c2ccccc2)C1` (stereo unspecified), the inhibition was inactive: 3.1%.

`COc1ccccc1OP(=O)(Nc1ccc(C)cn1)Oc1ccccc1OC`: the inhibition was inactive: -2.74%.

For the compound `O=C(NC(Sc1ccncn1)C(Cl)(Cl)Cl)c1ccccc1` (stereo unspecified), the inhibition was inactive: 9.94%.

With `Oc1ccccc1CNc1ccccn1`, the inhibition is inactive: 1.06%.

Take `CC(C)CC(=O)NC(Sc1ccc(Cl)cc1)C(Cl)(Cl)Cl` (stereo unspecified): the inhibition is inactive: -2.26%.

As to `Nc1cc(N)c2nonc2c1[N+](=O)[O-]`, the inhibition was inactive: 8.38%.

As for `COc1ccc(C2=NCC(CBr)S2)cc1` (stereo unspecified), the inhibition is inactive: 0.51%.

Take `CCc1nc2c(n1)c1c(non1O)c1c2no[n+]1[O-]`: the inhibition was inactive: 23.6%.

Regarding `O=[N+]([O-])c1cc([N+](=O)[O-])c(CCNc2ccccc2)c([N+](=O)[O-])c1`, the inhibition is inactive: 12%.

As for `Cc1ccc(NP(=O)(Oc2ccccc2)Oc2ccccc2)nc1`, the inhibition is inactive: 7.07%.

In the case of `O=[N+]([O-])c1cccc2n[nH]nc12`, the inhibition is inactive: 3.15%.

On to `CC(=O)N1C2C3N(C(C)=O)C1C1N(C(C)=O)C(C(N1C(C)=O)N3C(C)=O)N2C(C)=O`, for which the inhibition is inactive: 4.33%.

In the case of `CCN(/C(=N/P(=O)(N1CCOCC1)N1CCOCC1)N1CCOCC1)c1ccc(OC)cc1`, the inhibition is inactive: 4.08%.

For the compound `C[N+]1=C2C=CC=CC=C2SC12C([N+](=O)[O-])=CC([N+](=O)[O-])=C[C-]2[N+](=O)[O-]` (stereo unspecified), the inhibition was active: 26.1%.

With `Nc1ccc([As](=O)(O)c2ccc(N)cc2)cc1`, the inhibition is inactive: 6.77%.

In the case of `CC1CCN(C(=O)Oc2c(Cl)cc(Cl)c3cccnc23)CC1`, the inhibition is inactive: 3.96%.

`CN(C)C(=O)OCCc1n(C)cc[n+]1C`: the inhibition is inactive: 0.17%.

Consider `CC(C)=N/N=C(\N)N[N+](=O)[O-]`, for which the inhibition is inactive: 8.34%.

Regarding `O=P1(N(CCCl)CCCl)OCCCS1` (stereo unspecified), the inhibition was inactive: 2.09%.

In the case of `O=C(Nc1cc([As](=O)(O)O)ccc1O)c1ccccc1`, the inhibition is inactive: 12.1%.

Take `O=[N+]([O-])c1ncn(CCn2ncnc2[N+](=O)[O-])n1`: the inhibition is inactive: 4.91%.

For the compound `CC(C)(C)C(=O)NC(Sc1ccncn1)C(Cl)(Cl)Cl` (stereo unspecified), the inhibition was inactive: 1.06%.

As to `O=C(O)CNc1ccc([As](=O)(O)O)cc1`, the inhibition was inactive: 0.58%.

As for `O=[N+]([O-])c1cccc(NC2=NCC(CBr)S2)c1` (stereo unspecified), the inhibition is inactive: 2.47%.

As for `COC(=O)C1(C)COP(=O)(Nc2ccccc2)OC1` (stereo unspecified), the inhibition is inactive: 4.77%.

For the compound `O=P(Nc1ccccn1)(c1ccc(Br)cc1)c1ccc(Br)cc1`, the inhibition is inactive: 3.15%.

Consider `CN(C)C1(CNC(=O)c2ccc(Cl)c(S(N)(=O)=O)c2)CCCCC1`, for which the inhibition is inactive: 3.77%.

Regarding `COc1ccc(N)c([N+](=O)[O-])c1[N+](=O)[O-]`, the inhibition is inactive: 2.61%.

Consider `C[C@H]1OP(=O)(Oc2ccccc2)[C@H](O)[C@H](O)[C@H]1N=[N+]=[N-]` (stereo partly specified), for which the inhibition is inactive: 0.07%.

Consider `O=P(Nc1nc2ccccc2s1)(c1ccccc1)c1ccccc1`, for which the inhibition is inactive: 4.47%.

As to `O=[As](O)(c1ccccc1)c1ccc(O)cc1`, the inhibition was inactive: 1.81%.

On to `O=[N+]([O-])c1ccc(O)c(/C=N/Nc2ccc([N+](=O)[O-])cc2[N+](=O)[O-])c1`, for which the inhibition is inactive: 6.76%.

With `O=[N+]([O-])c1ncn(CCn2cnc([N+](=O)[O-])n2)n1`, the inhibition was inactive: 1.06%.

As for `CC(=O)NC(SC(=S)N(C)C)C(Cl)(Cl)Cl` (stereo unspecified), the inhibition was inactive: -1.28%.

For the compound `O=C(OC1CN2CCC1CC2)c1cccc(Cl)c1` (stereo unspecified), the inhibition is inactive: 3.14%.

For `Nc1ccc([As](=O)(O)c2ccc([N+](=O)[O-])cc2)cc1`, the inhibition is inactive: 3.49%.

In the case of `C(Cc1nn[nH]n1)Cc1nn[nH]n1`, the inhibition is inactive: 0.4%.

As for `CC(C)C(=O)NC(Sc1ccccc1)C(Cl)(Cl)Cl` (stereo unspecified), the inhibition was inactive: 5.66%.

Take `O=P(Nc1nccs1)(c1ccccc1)c1ccccc1`: the inhibition is inactive: 3.07%.

`c1nnnn1CCn1cnnn1`: the inhibition was inactive: -0.78%.

On to `CCOc1ccc(C2=NCC(CBr)S2)cc1` (stereo unspecified), for which the inhibition is inactive: 9.04%.

`O=P1(Nc2nc3ccc(Cl)cc3s2)COc2ccccc2O1` (stereo unspecified): the inhibition was inactive: 4.3%.

On to `CC(C)(C)C(=O)NC(Sc1ccccc1)C(Cl)(Cl)Cl` (stereo unspecified), for which the inhibition is inactive: -2.03%.

`CCc1cc(O)c([N+](=O)[O-])c(C)c1[N+](=O)[O-]`: the inhibition was inactive: 4.6%.

Turning to `C[C@@H]1C=CCP(=O)(Oc2ccccc2)O1` (stereo partly specified), the inhibition was inactive: 8.07%.

`C[C@H]1OP(=O)(Oc2ccccc2)C[C@@H]2O[C@@H]21` (stereo partly specified): the inhibition is inactive: -0.94%.

Take `Cc1ccccc1CN(C)C(=O)COC(=O)C(O)(c1ccccc1)c1ccccc1`: the inhibition was inactive: 9.66%.

In the case of `COC(=O)C1(C)COP(=O)(NCc2ccccc2)OC1` (stereo unspecified), the inhibition is inactive: -2.96%.

In the case of `N#C/C(=C\c1ccc(N(CCBr)CCBr)cc1)C(N)=O`, the inhibition is inactive: 6.97%.

Consider `CC(=O)c1ccc(N2CC2c2ccncc2)cc1` (stereo unspecified), for which the inhibition is inactive: 10.9%.

Consider `CC(=O)Nc1ccc(Oc2c([N+](=O)[O-])cc([N+](=O)[O-])cc2[N+](=O)[O-])cc1`, for which the inhibition is inactive: 0.28%.

As for `CC(=O)Nc1ccc([As](=O)(O)O)c(O)c1`, the inhibition is inactive: 2.9%.

Regarding `CCNC(=S)/N=C(\N)N[N+](=O)[O-]`, the inhibition is inactive: 9.97%.

For the compound `O=C(NC1CCS(=O)(=O)C1)NP(=S)(Oc1ccccc1)Oc1ccccc1` (stereo unspecified), the inhibition is inactive: 6.36%.

Consider `O=P1(N(CCCl)CCCl)OCCC2CCCCN21` (stereo unspecified), for which the inhibition was inactive: 1.27%.

Consider `CCC(=O)N1C2C3N(C(=O)CC)C1C1N(C(=O)CC)C(C(N1C(=O)CC)N3C(=O)CC)N2C(=O)CC`, for which the inhibition is inactive: 3.9%.

For `O=C(OC1CN2CCC1CC2)c1ccccc1` (stereo unspecified), the inhibition is inactive: 1.61%.

For `Cc1ccc(OP(=O)(Nc2ccccn2)Oc2ccc(C)cc2)cc1`, the inhibition was inactive: 5.63%.

Regarding `CC(=O)NC(SC(=S)N(CC(C)C)CC(C)C)C(Cl)(Cl)Cl` (stereo unspecified), the inhibition was inactive: 2.78%.

`COC(=O)c1cc2c(s1)N=C(c1ccccc1)N(C)P2(=O)N1CCOCC1` (stereo unspecified): the inhibition was inactive: 5.75%.

Turning to `CN(C)C(=O)Oc1noc2ccccc12`, the inhibition is inactive: 4.44%.

Turning to `O=c1c2cc([N+](=O)[O-])ccc2[nH]c2c([N+](=O)[O-])cc([N+](=O)[O-])cc12`, the inhibition was active: 36.9%.

For the compound `Cc1ccccc1OP(=O)(Nc1ccccn1)Oc1ccccc1C`, the inhibition was inactive: 2.88%.

`CC(NC(=O)COC(=O)C(O)(c1ccccc1)c1ccccc1)c1ccccc1` (stereo unspecified): the inhibition was inactive: 4.83%.
